Values quoted from earlier work in patent US11235084B2, “Embolic microspheres” (Varian Medical Systems, Inc., priority 2017, dated 2022).

N-(2-hydroxyethyl)piperazine-N′-(4-butanesulfonic acid)
reported pKa values at 25° C.: 8.3

piperazine-N,N′-bis(2-hydroxypropanesulfonic acid)
reported pKa values at 25° C.: 7.8
